## Curated experimental data: logP (octanol/water) values

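The OPERA project collected these measurements from public sources as training and test data for property models. One number stands for a compound and property, with no spread given. Method and conditions are not stated for these values. The measured form (salt, isomer or mixture) is not always the one drawn. Unmarked limits or estimates from the upstream databases cannot be ruled out.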

The octanol-water partition coefficient is given as log10; larger values mean a more lipophilic compound.
"n/a" marks a cell with nothing listed here.

| compound | name | log Kow |
|---|---|---|
| COc1ccc(/N=N/c2c(S(=O)(=O)[O-])cc3cc(Nc4nc(Nc5ccc6c(O)c(/N=N/c7ccc(OC)cc7S(=O)(=O)[O-])c(S(=O)(=O)[O-])cc6c5)nc(N5CCOCC5)n4)ccc3c2O)c(S(=O)(=O)[O-])c1.[Na+].[Na+].[Na+].[Na+] | n/a | -4.108 |
| CC1=C(C(=O)O)N2C(=O)[C@@H](NC(=O)[C@H](N)C3=CCC=CC3)[C@H]2SC1 | Cephradine | -1.5 |
| CCCCCCCCCCCC[n+]1ccccc1.[Br-] | Pyridinium, 1-dodecyl-, bromide (1:1) | 0.44 |
| NCCNCCNCCN | N1,N2-Bis(2-aminoethyl)-1,2-ethanediamine | -1.955 |
| CC(C)(C)c1nn(-c2cc(C(=O)O)cc(C(=O)O)c2)c(N)c1N=Nc1nnc(SCCSc2nnc(N=Nc3c(C(C)(C)C)nn(-c4cc(C(=O)O)cc(C(=O)O)c4)c3N)s2)s1 | n/a | -2.7 |
| CCOC(=O)c1cnc2n(c1=O)CC(C)CC2 (stereo not given) | n/a | 0.71 |
| CC[C@H](C)[C@H](N)C(=O)N1CCC[C@H]1C(O)=N[C@H](C(=O)O)[C@@H](C)CC | N-[Hydroxy(1-isoleucylpyrrolidin-2-yl)methylidene]isoleucine | -1.65 |
| C[C@]12CCC(=O)C=C1CC[C@H]1[C@@H]3CC[C@](O)(C(=O)CO)[C@@]3(C)CC(=O)[C@@]12F | 9alpha-Fluorocortisone | 1.37 |
| ClCC1(C(Cl)Cl)[C@H]2[C@@H](Cl)[C@H](Cl)[C@]1(C(Cl)Cl)[C@@H](Cl)[C@@H]2Cl (some centres not stated) | Nonachlorobornane (Parlar 50) | 5.84 |
| CN=c1oc2c(n1C)CCCC2 | n/a | 1.93 |
| C[SiH](C)C | Silane, trimethyl- | 1.205 |
| CC1=NN(c2ccc(C)cc2)C(=O)C1 | 3-Methyl-1-p-tolyl-5-pyrazolone | 1.77 |
| CCN(CC)c1nc(Nc2ccc(/C=C/c3ccc(Nc4nc(Nc5cc(S(=O)(=O)[O-])ccc5S(=O)(=O)[O-])nc(N(CC)CC)n4)cc3S(=O)(=O)[O-])c(S(=O)(=O)[O-])c2)nc(Nc2cc(S(=O)(=O)[O-])ccc2S(=O)(=O)[O-])n1.[Na+].[Na+].[Na+].[Na+].[Na+].[Na+] | n/a | -1.97 |
| O=S(=O)([O-])c1ccc(/N=N/c2c(O)ccc3ccccc23)cc1.[Na+] | C.I. Acid Orange 7 | -0.95 |
| O=C([O-])c1cc2ccccc2c(/N=N/c2ccc3ccccc3c2S(=O)(=O)[O-])c1O.[Ca+2] | C.I. Pigment Red 63, calcium salt (1:1) | 1.8 |
| CCCCCOC(=O)c1cc(=O)[nH]c(=O)[nH]1 | Pentyl 2,6-dioxo-1,2,3,6-tetrahydropyrimidine-4-carboxylate | 1.62 |
| Oc1c(I)cc(I)c2cccnc12 | Iodoquinol | 4 |
| O=[N+]([O-])c1cc(S(=O)(=O)[O-])cc(/N=N/c2c(S(=O)(=O)[O-])cc3cc(S(=O)(=O)[O-])cc(/N=N/c4c([O-])ccc5ccccc45)c3c2O)c1[O-].O=[N+]([O-])c1cc(S(=O)(=O)[O-])cc(/N=N/c2c(S(=O)(=O)[O-])cc3cc(S(=O)(=O)[O-])cc(/N=N/c4c([O-])ccc5ccccc45)c3c2O)c1[O-].[Co+3].[Na+].[Na+].[Na+].[Na+].[Na+].[Na+].[Na+] | n/a | 2 |
| CCOC(=O)CC(C)C | Ethyl isovalerate | 2.47 |
| CCOCC[N+](C)(C)C.[I-] | 2-Ethoxy-N,N,N-trimethylethan-1-aminium iodide | -2.22 |
| C[Si](C)(C)O[Si](C)(C)O[Si](C)(C)O[Si](C)(C)O[Si](C)(C)C | Dodecamethylpentasiloxane | 9.415 |
| COCCOCCOCCO | 2-[2-(2-Methoxyethoxy)ethoxy]ethanol | -1.29 |
| CCC(C)c1cc(S(=O)(=O)[O-])cc(-n2nc3ccccc3n2)c1O.[Na+] (stereo not given) | n/a | -0.24 |
| CCN(Cc1ccccc1)c1ccccc1 | N-Ethyl-N-phenyl benzylamine | 4.382 |
| CC(=O)[O-].CCN(CC)c1ccc(C(=C2C=CC(=[N+](CC)CC)C=C2)c2ccccc2)cc1 | n/a | 3.757 |
| CCN1CC(CCN2CCOCC2)C(c2ccccc2)(c2ccccc2)C1=O (stereo not given) | Doxapram | 3.6 |
| Cc1ccc(N)c(Cl)c1 | 2-Chloro-4-methylaniline | 2.58 |
| O=C(CO)[C@@H](O[C@H]1O[C@H](CO)[C@@H](O)[C@H](O)[C@H]1O)[C@H](O)[C@H](O)CO | D-Fructose, 3-O-.alpha.-D-glucopyranosyl- | -4.8 |
| CCC(=O)OCC[N+](C)(C)C.[I-] | n/a | -2.96 |
| CC(C)N(c1nn(C)/c(=N\N=C2C=CC(=[N+](C)C)C=C2)s1)C(C)C.COS(=O)(=O)[O-] | n/a | -0.399 |

Values as listed in the OPERA 2.9 repository of K. Mansouri.